Patent publication US11384076B2, “Synthesis, pharmacology and use of new and selective FMS-like tyrosine kinase 3 (FLT3) FLT3 inhibitors” (UNIVERSITÄT REGENSBURG, priority 2017, dated 2022)

Experiments:
Ba/F3 ITD N676K = test: Cell cycle / subG1 fraction in Ba/F3 mutants, flow cytometry; type: cell-based, murine; details: 5 nM, 48 h
Procedure: Cells were stained with PI; cell cycle was analyzed by flow cytometry.
After incubation, cells were harvested on ice and fixed in 80% ethanol at −20° C. for at least 1 h. Next, the cells were incubated with RNase for 30 min at room temperature, thereafter stained with propidium iodide (PI), and measured immediately with a flow cytometer. PI intercalates into DNA. In the different phases of the cell cycle, cells incorporate various amounts of PI. This allows the quantification of the cell cycle phases. The subG1 population represents the fraction of apoptotic/necrotic cells, which contains only fragmented DNA (DNA content <2N).
As described in the introduction there are several mutations next to ITDs that lead to reduce efficiency or to resistance against FLT3i treatment. The murine pro B cell line Ba/F3 and different mutant forms were analyzed. The proliferation of Ba/F3 wild type (WT) cells is dependent of interleukin-3 (IL-3). These cells were cultivated with 10% WEHI.
The WT and the different mutants were stained with PI and cell cycle distribution was analyzed by flow cytometry.

FLT3 plus KIT = details: leukemic patients; Smith, Lasater et al. 2014; cited from earlier work
Ba/F3 ITD N676K mutant = test: FLT3 signaling in Ba/F3 mutants, Western blot; details: 5 nM, 2 h

CC(C)(C)c1cc(NC(=O)Nc2ccc(-c3cn4c(n3)sc3cc(OCCN5CCOCC5)ccc34)cc2)no1.Cl.Cl [AC220, N-(5-tert-Butyl-isoxazol-3-yl)-N′-{4-[7-(2-morpholin-4-yl-ethoxy)imidazo[2,1-b][1,3]benzothiazol-2-yl]phenyl}urea Dihydrochloride, reference compound]
subG1 fraction (Ba/F3 ITD N676K): clear increase | myelosuppression (FLT3 plus KIT): severe myelosuppression | signal of p-FLT3 (Ba/F3 ITD N676K mutant): clear reduction
